{"sequences": {"note": "The chains behind the UniProt entries cited, without tags or fusion partners.", "UniProt P21397, whole entry": "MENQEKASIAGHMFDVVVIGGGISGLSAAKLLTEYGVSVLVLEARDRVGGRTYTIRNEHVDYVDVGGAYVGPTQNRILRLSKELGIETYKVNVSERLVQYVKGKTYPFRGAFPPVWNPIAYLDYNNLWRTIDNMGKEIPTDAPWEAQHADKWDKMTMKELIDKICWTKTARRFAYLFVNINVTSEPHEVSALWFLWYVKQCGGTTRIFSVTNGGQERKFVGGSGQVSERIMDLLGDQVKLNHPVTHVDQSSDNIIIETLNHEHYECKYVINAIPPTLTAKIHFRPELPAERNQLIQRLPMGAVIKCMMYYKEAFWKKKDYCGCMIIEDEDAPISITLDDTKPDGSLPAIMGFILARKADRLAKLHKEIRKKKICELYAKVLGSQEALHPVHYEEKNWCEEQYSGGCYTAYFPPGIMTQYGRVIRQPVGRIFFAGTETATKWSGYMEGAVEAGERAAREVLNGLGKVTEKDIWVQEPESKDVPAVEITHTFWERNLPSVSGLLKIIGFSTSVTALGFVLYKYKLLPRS"}, "source": "paper PMC7571065", "about": "“Design, Synthesis, In Vitro and In Silico Studies of New Thiazolylhydrazine-Piperazine Derivatives as Selective MAO-A Inhibitors” (Molecules, 2020)", "biological_target": "T1, MAO-A (Homo sapiens, UniProt P21397)", "T1 construct": "purchased Sigma-Aldrich (Steinheim, Germany)", "test": "In vitro fluorometric MAO-A inhibition assay (Ampliflu Red, tyramine)", "assay_type": "biochemical", "settings": "read-out: MAO-A % Inhibition", "data": [{"smiles": "C#CCN(C)CCCOc1ccc(Cl)cc1Cl", "note": "[Clorgiline, clorgiline, reference compound]", "values": [{"measurement": "inhibition at 100 µM", "value": "91.3 ± 1.3", "unit": "%"}, {"measurement": "inhibition at 1000 µM", "value": "96.9 ± 1.25", "unit": "%"}]}]}
